Measurements published in BindingDB's records for doi:10.1074/jbc.271.42.26315 (Bayer, 1996).

Biological target: T1, Neuropeptide Y receptor type 5 (Rattus norvegicus, UniProt Q63634)
T1 sequence (Q63634 whole entry): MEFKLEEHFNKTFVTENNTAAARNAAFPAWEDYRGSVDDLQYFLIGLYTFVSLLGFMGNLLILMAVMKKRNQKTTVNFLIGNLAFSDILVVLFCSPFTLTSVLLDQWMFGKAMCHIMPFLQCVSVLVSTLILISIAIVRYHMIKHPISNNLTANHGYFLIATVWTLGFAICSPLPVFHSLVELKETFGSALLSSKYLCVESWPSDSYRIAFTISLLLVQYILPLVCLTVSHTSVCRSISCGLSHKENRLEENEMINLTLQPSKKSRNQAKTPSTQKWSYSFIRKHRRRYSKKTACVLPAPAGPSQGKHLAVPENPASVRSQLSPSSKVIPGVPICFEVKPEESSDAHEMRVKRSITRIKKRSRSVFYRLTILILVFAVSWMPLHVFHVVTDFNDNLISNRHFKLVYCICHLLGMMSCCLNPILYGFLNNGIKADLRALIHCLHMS

CC[C@H](C)[C@H](NC(=O)[C@H](Cc1ccc(O)cc1)NC(=O)[C@H](Cc1cnc[nH]1)NC(=O)[C@H](CCCN=C(N)N)NC(=O)[C@H](CC(C)C)NC(=O)[C@H](C)NC(=O)[C@H](CO)NC(=O)[C@H](Cc1ccc(O)cc1)NC(=O)[C@H](Cc1ccc(O)cc1)NC(=O)[C@H](CCCN=C(N)N)NC(=O)[C@H](C)NC(=O)[C@H](CCSC)NC(=O)[C@H](CC(=O)O)NC(=O)[C@H](CCC(=O)O)NC(=O)[C@H](C)NC(=O)[C@@H]1CCCN1)C(=O)N[C@@H](CC(N)=O)C(=O)N[C@@H](CC(C)C)C(=O)N[C@H](C(=O)N[C@H](C(=O)N[C@@H](CCCN=C(N)N)C(=O)N[C@@H](CCC(N)=O)C(=O)N[C@@H](CCCN=C(N)N)C(=O)N[C@@H](Cc1ccc(O)cc1)C(N)=O)[C@@H](C)O)[C@@H](C)CC [NPY 13-36, human, rat]
pKi: 7.96

pKi: −log10 of the molar value.
